IC50 data for 15 compounds are collected here from patent US20240360165A1, “INHIBITORS OF CYCLIN DEPENDENT KINASE 7 (CDK7)” (Syros Pharmaceuticals, Inc., priority 2016, published 2024).

Sequences of proteins named here, by UniProt entry; tags and fusion partners are left off. Residues count along the entry.
UniProt P50613, whole entry: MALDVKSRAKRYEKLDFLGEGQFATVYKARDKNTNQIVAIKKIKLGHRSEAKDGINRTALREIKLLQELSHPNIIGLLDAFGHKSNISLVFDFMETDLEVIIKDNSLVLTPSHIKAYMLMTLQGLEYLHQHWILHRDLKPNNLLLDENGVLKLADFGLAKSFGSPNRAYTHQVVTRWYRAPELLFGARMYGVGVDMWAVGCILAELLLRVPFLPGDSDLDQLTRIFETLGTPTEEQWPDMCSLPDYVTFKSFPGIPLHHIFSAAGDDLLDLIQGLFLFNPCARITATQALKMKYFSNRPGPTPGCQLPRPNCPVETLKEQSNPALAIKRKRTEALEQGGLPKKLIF
UniProt P50750, whole entry: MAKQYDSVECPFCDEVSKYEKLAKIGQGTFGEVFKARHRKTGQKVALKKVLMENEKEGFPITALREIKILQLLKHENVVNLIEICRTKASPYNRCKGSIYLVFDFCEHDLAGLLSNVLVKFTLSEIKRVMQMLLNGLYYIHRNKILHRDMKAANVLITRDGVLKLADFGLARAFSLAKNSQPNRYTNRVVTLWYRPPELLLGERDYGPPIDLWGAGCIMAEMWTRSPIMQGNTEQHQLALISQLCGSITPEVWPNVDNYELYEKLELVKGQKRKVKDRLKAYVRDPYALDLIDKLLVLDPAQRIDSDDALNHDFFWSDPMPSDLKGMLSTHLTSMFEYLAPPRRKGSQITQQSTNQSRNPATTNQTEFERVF
UniProt Q9NYV4, 686-1082 limits assumed: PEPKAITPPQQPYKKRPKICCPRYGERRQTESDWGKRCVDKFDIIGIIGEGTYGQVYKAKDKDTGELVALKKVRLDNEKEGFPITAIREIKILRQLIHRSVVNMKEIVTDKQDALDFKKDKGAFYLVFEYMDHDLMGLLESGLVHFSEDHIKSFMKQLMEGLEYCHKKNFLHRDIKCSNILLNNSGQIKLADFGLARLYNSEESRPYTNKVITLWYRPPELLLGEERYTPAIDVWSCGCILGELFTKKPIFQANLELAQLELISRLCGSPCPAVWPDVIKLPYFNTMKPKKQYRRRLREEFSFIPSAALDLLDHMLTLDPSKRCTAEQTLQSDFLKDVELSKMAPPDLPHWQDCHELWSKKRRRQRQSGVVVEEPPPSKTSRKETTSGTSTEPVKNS
UniProt O60563, whole entry partner: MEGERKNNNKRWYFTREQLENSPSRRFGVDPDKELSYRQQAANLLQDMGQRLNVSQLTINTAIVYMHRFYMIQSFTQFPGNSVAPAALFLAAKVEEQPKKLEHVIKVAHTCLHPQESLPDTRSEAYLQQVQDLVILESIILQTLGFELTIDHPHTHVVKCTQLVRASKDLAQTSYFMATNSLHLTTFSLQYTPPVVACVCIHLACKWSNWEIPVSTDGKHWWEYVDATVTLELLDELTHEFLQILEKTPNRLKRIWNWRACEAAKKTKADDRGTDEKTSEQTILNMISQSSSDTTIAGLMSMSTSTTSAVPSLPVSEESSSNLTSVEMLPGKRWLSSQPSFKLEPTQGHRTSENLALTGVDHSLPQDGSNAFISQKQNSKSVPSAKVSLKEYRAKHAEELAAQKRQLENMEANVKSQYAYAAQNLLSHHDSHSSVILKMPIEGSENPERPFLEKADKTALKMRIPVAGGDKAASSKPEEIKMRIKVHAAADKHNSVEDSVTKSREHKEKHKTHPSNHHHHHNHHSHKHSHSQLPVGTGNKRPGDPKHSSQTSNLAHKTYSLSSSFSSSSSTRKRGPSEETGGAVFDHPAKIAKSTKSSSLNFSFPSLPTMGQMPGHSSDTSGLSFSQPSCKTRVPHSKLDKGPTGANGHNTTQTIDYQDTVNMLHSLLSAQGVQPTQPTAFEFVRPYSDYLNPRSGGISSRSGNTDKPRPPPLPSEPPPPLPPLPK
UniProt P51946, whole entry partner: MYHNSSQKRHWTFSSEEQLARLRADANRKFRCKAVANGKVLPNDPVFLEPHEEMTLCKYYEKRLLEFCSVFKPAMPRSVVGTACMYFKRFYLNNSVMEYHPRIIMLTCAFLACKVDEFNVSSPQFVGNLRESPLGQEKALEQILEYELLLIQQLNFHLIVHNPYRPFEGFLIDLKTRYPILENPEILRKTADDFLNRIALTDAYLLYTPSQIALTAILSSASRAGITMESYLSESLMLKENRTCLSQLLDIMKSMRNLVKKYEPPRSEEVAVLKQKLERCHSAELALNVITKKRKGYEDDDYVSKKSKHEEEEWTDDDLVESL
UniProt P51948, whole entry partner: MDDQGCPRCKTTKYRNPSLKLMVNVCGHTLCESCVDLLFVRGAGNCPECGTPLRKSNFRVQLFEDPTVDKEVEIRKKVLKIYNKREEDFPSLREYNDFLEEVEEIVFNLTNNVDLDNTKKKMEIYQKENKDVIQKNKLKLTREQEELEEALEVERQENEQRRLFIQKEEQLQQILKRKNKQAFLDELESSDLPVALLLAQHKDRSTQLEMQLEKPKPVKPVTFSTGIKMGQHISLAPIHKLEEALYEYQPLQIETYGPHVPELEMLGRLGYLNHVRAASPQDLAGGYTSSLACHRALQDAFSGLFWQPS
UniProt O75909, whole entry partner: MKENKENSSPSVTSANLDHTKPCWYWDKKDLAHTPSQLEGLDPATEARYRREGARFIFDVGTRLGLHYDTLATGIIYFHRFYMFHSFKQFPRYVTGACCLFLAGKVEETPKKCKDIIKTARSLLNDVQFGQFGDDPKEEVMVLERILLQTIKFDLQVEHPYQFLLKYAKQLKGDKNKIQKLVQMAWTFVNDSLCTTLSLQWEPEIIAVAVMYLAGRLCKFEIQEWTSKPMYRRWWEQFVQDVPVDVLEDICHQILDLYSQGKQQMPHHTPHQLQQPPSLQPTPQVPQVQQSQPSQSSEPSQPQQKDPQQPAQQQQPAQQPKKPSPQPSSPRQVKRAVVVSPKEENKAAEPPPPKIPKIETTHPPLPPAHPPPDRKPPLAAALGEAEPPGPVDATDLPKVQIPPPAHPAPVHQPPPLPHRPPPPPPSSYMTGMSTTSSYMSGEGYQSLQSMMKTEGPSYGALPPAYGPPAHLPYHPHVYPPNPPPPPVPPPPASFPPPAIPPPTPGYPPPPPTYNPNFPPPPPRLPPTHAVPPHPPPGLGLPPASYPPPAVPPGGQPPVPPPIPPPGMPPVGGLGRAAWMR

pIC50: −log10 of the molar value.

For experiment [1], the target named is CDK7/Cyclin H/MAT1 complex (Homo sapiens, UniProt P50613). Kind of experiment: CDK7 inhibition assay (Caliper/LabChip EZ Reader kinase assay). Particulars: read-out: CDK7; Table 1; CDK7/Cyclin H/MAT1 6 nM, ATP 2 mM, 35 min at 27° C.
A further experiment addresses CDK9/Cyclin T1 complex (Homo sapiens, UniProt P50750). Kind of experiment: CDK9 inhibition assay (Caliper/LabChip EZ Reader kinase assay). Particulars: read-out: CDK9; Table 1; CDK9/Cyclin T1 8 nM, ATP 2 mM, 15 min at 27° C.
The target of another experiment is CDK2/Cyclin E1 complex (Homo sapiens, UniProt P24941). Kind of experiment: CDK2 inhibition assay (Caliper/LabChip EZ Reader kinase assay). As to conditions: read-out: CDK2; Table 1; CDK2/Cyclin E1 0.5 nM, ATP 2 mM, 35 min at 27° C.
For experiment [2], the target named is CDK12 (aa686-1082)/Cyclin K complex (Homo sapiens, UniProt Q9NYV4). Nature of the experiment: CDK12 inhibition assay (Caliper/LabChip EZ Reader kinase assay). Particulars: read-out: CDK12; Table 1; CDK12 (aa686-1082)/Cyclin K 50 nM, ATP 2 mM, 3 hr at 27° C.
A further experiment concerns A673 cells. Kind of experiment: Inhibition of proliferation of A673 cells (CyQUANT, 72 hour). Particulars: read-out: Inhibition of Proliferation of A673 Cells (calculated IC50).

For the compound `CC(C)[C@@H]1CC[C@H](Nc2ncc(C(F)(F)F)c(-c3c[nH]c4ccccc34)n2)CN1` (single isomer, unassigned), the pIC50 in experiment [1] is 6.70 to 7.70; on CDK9/Cyclin T1 complex it was below 5.30; on CDK2/Cyclin E1 complex it was 5.30 to 6.70; in experiment [2], 5.30 to 6.70.

As to `FC(F)(F)c1cnc(N[C@H]2CCCNC2)nc1-c1c[nH]c2cnc(Cl)cc12`, the pIC50 (at CDK9/Cyclin T1 complex; in experiment [2]) was 5.30 to 6.70 each time.

For `C[C@@H]1CNC[C@@H](Nc2ncc(Cl)c(-c3c[nH]c4ccccc34)n2)C1`, the pIC50 was 6.70 to 7.70 in experiment [1], 5.30 to 6.70 at CDK9/Cyclin T1 complex and 5.30 to 6.70 in experiment [2].

For the compound `Clc1cnc(N[C@H]2CCCNC2)nc1-c1n[nH]c2ccccc12`, the pIC50 in experiment [1] was above 7.70; at CDK9/Cyclin T1 complex, 5.30 to 6.70; at CDK2/Cyclin E1 complex, 5.30 to 6.70; in the experiment with A673 cells, 6.70 to 7.70; in experiment [2], 5.30 to 6.70.

For the compound `CCc1cnc(N[C@H]2CCCNC2)nc1-c1n[nH]c2ccccc12`, the figures for the pIC50 (in experiment [1]; on CDK9/Cyclin T1 complex; in experiment [2]) were 6.70 to 7.70, 5.30 to 6.70 and 5.30 to 6.70, respectively.

As for `CNC(=O)[C@H]1CNC[C@H](Nc2ncc(C(F)(F)F)c(-c3c[nH]c4ccccc34)n2)C1` (single isomer, unassigned), the pIC50 (on CDK9/Cyclin T1 complex; in experiment [2]) was 5.30 to 6.70 each time.

In the case of `Fc1cccc2c(-c3nc(N[C@H]4CCCNC4)ncc3Cl)n[nH]c12`, the pIC50 in experiment [1] is 6.70 to 7.70; at CDK9/Cyclin T1 complex it was 5.30 to 6.70; in experiment [2], 5.30 to 6.70.

Regarding `CCOP(=O)(OCC)c1ccc2[nH]cc(-c3nc(N[C@H]4CCCNC4)ncc3C(F)(F)F)c2c1`, the pIC50 in experiment [1] is 6.70 to 7.70; at CDK9/Cyclin T1 complex, 5.30 to 6.70.

With `CC1(Nc2ncc(Cl)c(-c3c[nH]c4ccccc34)n2)CCCNC1` (centres unmarked), the pIC50 in experiment [1] was 5.30 to 6.70.

As for `Cc1c(-c2ccc3c(-c4nc(N[C@H]5CCCNC5)ncc4C(F)(F)F)c[nH]c3c2)c[nH]c(=O)c1C#N` [Compound 311, 4-methyl-2-oxo-5-[3-[2-[[(3S)-3-piperidyl]amino]-5-(trifluoromethyl)pyrimidin-4-yl]-1H-indol-6-yl]-1H-pyridine-3-carbonitrile], the pIC50 in experiment [1] was 6.70 to 7.70; at CDK9/Cyclin T1 complex, 5.30 to 6.70; in the experiment with A673 cells it was 5.30 to 6.70; in experiment [2] it was 5.30 to 6.70.

For `FC(F)(F)Cc1cnc(N[C@H]2CCCNC2)nc1-c1c[nH]c2ccccc12`, the pIC50 is 5.30 to 6.70 in experiment [1]; below 5.30 on CDK9/Cyclin T1 complex; below 5.30 on CDK2/Cyclin E1 complex; 6.70 to 7.70 with A673 cells; 5.30 to 6.70 in experiment [2].

Take `Clc1cnc(N[C@@H]2CCCNC2)nc1-c1c[nH]c2ccccc12`: the pIC50 (in experiment [1]; on CDK9/Cyclin T1 complex; in experiment [2]) was 5.30 to 6.70 throughout.

With `Oc1ncccc1-c1ccc2c(-c3nc(N[C@H]4CCCNC4)ncc3C(F)(F)F)c[nH]c2c1` [Compound 310, 3-[3-[2-[[(3S)-3-piperidyl]amino]-5-(trifluoromethyl)pyrimidin-4-yl]-1H-indol-6-yl]pyridin-2-ol], the pIC50 at CDK9/Cyclin T1 complex is 5.30 to 6.70; in the experiment with A673 cells it was 6.70 to 7.70; in experiment [2], 5.30 to 6.70.

For the compound `Fc1cc2[nH]nc(-c3nc(N[C@H]4CCCNC4)ncc3C(F)(F)F)c2cc1F`, the pIC50 (on CDK9/Cyclin T1 complex; in experiment [2]) was 5.30 to 6.70 in each case.

On to `FC(F)(F)c1cnc(N[C@H]2CCCNC2)nc1-c1c[nH]c2c(Cl)cccc12`, for which the pIC50 on CDK9/Cyclin T1 complex is 5.30 to 6.70; in experiment [2], 6.70 to 7.70.
